The experiment addresses TAK1/TAB1 (Homo sapiens, UniProt O43318). As to the kind of experiment: Competitive inhibition of recombinant TAK1-TAB1 assessed as [33P]gamma-ATP incorporation into substrate histone H1 peptide by filter plate assay. It counts as protein-complex assay.

Amino acid sequences for entries named in this document (tags omitted). A change or cut given only in a name is not applied to a line headed by its entry.
UniProt O43318: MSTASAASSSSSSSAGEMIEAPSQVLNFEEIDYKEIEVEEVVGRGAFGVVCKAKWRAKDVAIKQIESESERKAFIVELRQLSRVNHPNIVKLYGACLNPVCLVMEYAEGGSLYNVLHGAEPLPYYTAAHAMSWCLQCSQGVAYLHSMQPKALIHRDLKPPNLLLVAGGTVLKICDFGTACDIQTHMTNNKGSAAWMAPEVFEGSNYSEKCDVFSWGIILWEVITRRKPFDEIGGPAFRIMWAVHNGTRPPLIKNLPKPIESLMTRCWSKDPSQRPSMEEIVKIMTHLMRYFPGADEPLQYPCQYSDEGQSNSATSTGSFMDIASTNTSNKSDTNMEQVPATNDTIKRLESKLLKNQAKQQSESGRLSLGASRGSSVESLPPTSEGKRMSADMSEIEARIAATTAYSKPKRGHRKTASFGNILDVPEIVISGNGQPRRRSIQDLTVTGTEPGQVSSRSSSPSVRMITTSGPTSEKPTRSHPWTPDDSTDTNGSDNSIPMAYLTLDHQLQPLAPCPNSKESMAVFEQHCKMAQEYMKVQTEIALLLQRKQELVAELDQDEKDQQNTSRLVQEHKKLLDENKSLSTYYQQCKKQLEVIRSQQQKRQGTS

Results on one compound are retold here after ChEMBL document CHEMBL1759936, “Oxindole derivatives as inhibitors of TAK1 kinase” (Bioorg Med Chem Lett, 2011).

As a reminder, the IC50 is the concentration that gives 50% inhibition. Regarding `COc1cc(O)c2c(c1)/C=C/C[C@H](O)[C@H](O)C(=O)/C=C\C[C@H](C)OC2=O`, the IC50 is 8 nM.
